The assay addresses D(2) dopamine receptor (Homo sapiens, UniProt P14416).

Amino acid sequences for entries named in this document (tags omitted).
UniProt P14416, whole entry: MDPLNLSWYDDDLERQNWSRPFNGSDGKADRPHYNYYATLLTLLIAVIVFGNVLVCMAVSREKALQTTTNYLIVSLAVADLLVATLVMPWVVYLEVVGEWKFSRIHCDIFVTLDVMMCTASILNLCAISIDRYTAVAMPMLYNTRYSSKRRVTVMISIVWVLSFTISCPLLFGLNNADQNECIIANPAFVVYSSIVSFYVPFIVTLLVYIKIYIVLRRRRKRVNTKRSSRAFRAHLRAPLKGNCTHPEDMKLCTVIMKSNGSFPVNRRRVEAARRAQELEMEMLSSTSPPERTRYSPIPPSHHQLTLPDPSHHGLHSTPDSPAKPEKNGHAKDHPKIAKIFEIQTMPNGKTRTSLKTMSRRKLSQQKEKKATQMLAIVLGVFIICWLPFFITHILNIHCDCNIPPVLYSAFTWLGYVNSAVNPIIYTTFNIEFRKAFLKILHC

As usually defined, the Ki is a measure of affinity in units of concentration, obtained from inhibition or displacement. A higher Ki goes with a looser hold on the target.

Regarding `CC(C)N[C@@H]1CCc2c(F)cccc2C1`, affinity was put at a Ki of 2450 nM.
